According to BindingDB's records for doi:10.1021/acs.jmedchem.0c01741 (Zhengzhou University, 2020):

Experiment: Inhibition of ABCB1 in multidrug-resistant human SW620/Ad300 cells assessed as increase in reversal of resistance to paclitaxel-induced cytotoxicity by measuring paclitaxel IC50 pre-incubated for 4 hrs followed by paclitaxel addition and measured after 72 hrs by MTT assay (Rvb = 4.23 +/- 0.6 uM)

Cc1cc(Nc2ccc(Cl)cc2)n2nc(SCc3nc4ccccc4[nH]3)nc2n1
IC50: 0.27 µM

Cc1cc(Nc2ccc(F)cc2)n2nc(SCc3ccccc3)nc2n1
IC50: 1.04 µM
